Like-named read-outs stand apart in the source and are kept apart here.
Tests used:
HeLa cells = experiment: Cell viability (MTS) assay, cell killing; assay type: cell-based, human; conditions: conjugate titrated + fixed 50 pM trastuzumab-saporin (Example 14)
Procedure: (§1) Cells were seeded in a 96 well plate at 5.000-10.000 c/w in 100 μL/well and incubated overnight at 37° C. […] The media was removed from the cell culture plate and replaced by 180 μL culture media, followed by the addition of 20 μL treatment-mix/well. […] In the case that endosomal acidification inhibitors (chloroquine (Sigma Aldrich) or bafilomycin A1 (Enzo Life Sciences)) were used, the cell culture media in step 1 of treatment was replaced by 180 μL media containing 1 μM chloroquine or 0.2 μM bafilomycin A1. The plate was incubated for 1 hour at 37° C., before the 10× treatment-mix samples were added. The remaining incubation and treatment steps were performed according to standard procedures known in the field.
After treatment the cells were incubated for 72 hr at 37° C. before the cell viability was determined by a MTS-assay, performed according to the manufacturer's instruction (CellTiter 96® AQueous One Solution Cell Proliferation Assay, Promega). […] Subsequently, the optical density at 492 nm was measured on a Thermo Scientific Multiskan FC plate reader (Thermo Scientific). For quantification the background signal of ‘medium only’ wells was subtracted from all other wells, before the ratio of […].

A431 cells = experiment: Cell viability (MTS) assay, cell killing; assay type: cell-based, human
Procedure: (§2) After treatment the cells were incubated for 72 hr at 37° C. before the cell viability was determined by a MTS-assay, performed according to the manufacturer's instruction (CellTiter 96® AQueous One Solution Cell Proliferation Assay, Promega). Briefly, the MTS solution was diluted 20× in DMEM without phenol red (PAN-Biotech GmbH) supplemented with 10% FBS. The cells were washed once with 200 μL/PBS well, after which 100 μL diluted MTS solution was added/well. The plate was incubated for approximately 20-30 minutes at 37° C. Subsequently, the OD at 492 nm was measured on a Thermo Scientific Multiskan FC plate reader (Thermo Scientific). For quantification the background signal of ‘medium only’ wells was subtracted from all other wells, before the cell viability percentage of treated/untreated cells was calculated, by dividing the background corrected signal of treated wells over the background corrected signal of the untreated wells (×100).
as §1
(§3) After treatment the cells were incubated for 72 hr at 37° C. before the cell viability was determined by a MTS-assay, performed according to the manufacturer's instruction (CellTiter 96® AQueous One Solution Cell Proliferation Assay, Promega). Briefly, the MTS solution was diluted 20× in DMEM without phenol red (PAN-Biotech GmbH) supplemented with 10% FBS (PAN-Biotech GmbH). The cells were washed once with 200 μL PBS per well, after which 100 μL diluted MTS solution was added per well. The plate was incubated for approximately 20-30 minutes at 37° C. Subsequently, the optical density at 492 nm was measured on a Thermo Scientific Multiskan FC plate reader (Thermo Scientific). For quantification the background signal of ‘medium only’ wells was subtracted from all other wells, before the ratio of […].

A2058 cells = experiment: Cell viability (MTS) assay, cell killing; assay type: cell-based, human
Procedure: as §2, §1, §3

MDA-MB-468 cells = experiment: Cell viability (MTS) assay, cell killing; assay type: cell-based, human
Procedure: as §2, §1, §3

human A431 tumor cells = experiment: A431 xenograft mouse tumor model, tumor volume; assay type: in vivo
Procedure: Female Balb/c nude mice were injected subcutaneously with a suspension of human A431 tumor cells. Under the skin of the mice, a human epidermal carcinoma developed in the xenograft animal tumor model. After injection of the tumor cells, the xenograft tumor was allowed to develop to a size of approximately 170-180 mm^3. The A431 tumor cells have the following characteristics: high EGFR expressors, medium CD71 expressors, low HER2 expressors.
In Table 6A, the results of the treatment of control mice and tumor-bearing mice are presented. Tumor-bearing mice were treated with the indicated antibodies directed to either human Her2/neu, human EGFR, or human CD71, which are cell-surface receptors on the xenograft tumor. Cetuximab was covalently conjugated with saponin SO1861. […] The dose of the ADCs was sub-optimal in the tumor model. That is to say, from previous experiments, it was established at which sub-optimal dose of the ADCs no tumor-regression or arrest of tumor growth would be observable.
The 2 target 2-components system (2T2C) is the combination treatment of mAb1-SO1861 and mAb2-protein toxin, (FIG. 1B-D).

SK-BR-3 cells = experiment: Cell viability (MTS) assay, cell killing; assay type: cell-based, human; conditions: mAb-SO1861 (DAR4) titrated + fixed 50 pM bivalentVHHEGFR-dianthin
Procedure: as §2, §1, §3

[1] = read-out: IC50 (calculated on concentration SO1861), + fixed 10 pM EGF-dianthin
[2] = read-out: IC50 (calculated on concentration SO1861), + fixed 10 pM cetuximab-saporin
[3] = read-out: IC50 (calculated on concentration SO1861), SO1861 or mAb-SO1861 titrated + fixed 50 pM trastuzumab-saporin
[4] = mAb-SO1861 (DAR4) titrated + fixed 50 pM bivalentVHHEGFR-dianthin, read-out: IC50

**Q.** Which IC50 (HeLa cells) does the source give for “Cetuximab-SO1861: SO1861-EMCH conjugated via cysteine residues to cetuximab, cleavable hydrazone linker” here?
**A.** Its IC50 is 400 nM.

**Q.** What about the IC50 (A431 cells; conjugate titrated + fixed 50 pM trastuzumab-saporin (Example 14), read-out: IC50) of the same substance?
**A.** The IC50 was 3 nM.

**Q.** And the IC50 (A431 cells; [1])?
**A.** The IC50 was 8 nM.

**Q.** And the IC50 (A431 cells; [2])?
**A.** The IC50 was 5 nM.

**Q.** What about the IC50 (A431 cells; [3]) of the same substance?
**A.** The IC50 was 12 nM.

**Q.** And the IC50 (A2058 cells; conjugate titrated + fixed 50 pM trastuzumab-saporin (Example 14))?
**A.** Its IC50 is > 400 nM.

**Q.** What about the IC50 (MDA-MB-468 cells; [1]) of the same substance?
**A.** Its IC50 is 6 nM.

**Q.** What about the IC50 (MDA-MB-468 cells; [2]) of the same substance?
**A.** Its IC50 is 3 nM.

**Q.** And the IC50 (MDA-MB-468 cells; [3])?
**A.** Its IC50 is 18 nM.

**Q.** And the “tumor size (volume)” value (human A431 tumor cells; Balb/c nude mice, treatment alone, sub-optimal dose)?
**A.** Its value is 2000 mm^3.

**Q.** And the “outcome (death/euthanasia or survival)” value (human A431 tumor cells; treatment alone)?
**A.** The value was “death/euthanasia”.

**Q.** “Cetuximab-SO1861 (DAR4): SO1861-EMCH conjugated via cysteine residues to cetuximab with a DAR 4” was tested. Which IC50 (A431 cells; [4]) did it give?
**A.** The IC50 was 4 nM.

**Q.** And the IC50 (A2058 cells; mAb-SO1861 (DAR4) titrated + fixed 50 pM bivalentVHHEGFR-dianthin)?
**A.** Its IC50 is > 100 nM.

**Q.** What about the IC50 (MDA-MB-468 cells; [4]) of the same substance?
**A.** Its IC50 is 0.5 nM.

**Q.** And the IC50 (SK-BR-3 cells)?
**A.** The IC50 was > 100 nM.

**Q.** With “Trastuzumab-SO1861: SO1861-EMCH conjugated via cysteine residues to trastuzumab, cleavable hydrazone linker” as the substance, how does the IC50 (MDA-MB-468 cells; conjugate titrated + fixed 1.5 pM EGFdianthin (Example 14), read-out: IC50) read?
**A.** Its IC50 is > 1000 nM.

**Q.** With “Cetuximab: monoclonal antibody recognizing and binding human EGFR [reference compound]” as the substance, how does the tumor volume change (human A431 tumor cells; cetuximab positive control alone) read?
**A.** The tumor volume change was “only tumor growth inhibition, but no regression”.

**Q.** What about the “outcome (death/euthanasia or survival)” value (human A431 tumor cells; treatment alone) of the same substance?
**A.** The value was “(death/euthanasia)”.
